Test system: pancreatin
Assay: Cleavage experiments with pancreatin (Panzytrat 40,000) in water, followed by acid number over time
Conditions: each ester in its pure form, 50° C.
Description: Both media are from the company Biorelevant®, Ltd. in Great Britain. In addition, in some experiments porcine pancreas is added (Panzytrat® 40,000, Fa. Allergan).
The pancreatin is used in the form of the commercially available product Panzytrat® 40,000 from the Allergan company. The whole mixture is stirred on a hotplate at 50° C.; the course of the reaction is determined and followed by continuous recording of the acid number over time.

Substance: 3-acetylacetobutyric acid tetra-diglycerol ester [3-acetylaceto-BHB tetra-diglycerol ester]
- cleavage by pancreatin: cleaved by pancreatin
